In PubChem BioAssay AID504847 (National Center for Advancing Translational Sciences (NCATS), 2011):
The list shows a part of the results, in another mix than the full data. Inconclusive results are not listed. Activity calls are given as the source filed them. The call rests on the fitted dose curve; in most records, active means well fitted inhibition curve with a large enough effect; inconclusive means small, poorly fitted or top-dose-only effect, or another doubt; inactive means no such curve, though single readings can be large or run the other way.

The chains behind the UniProt entries cited, without tags or fusion partners. Where a name states a change or a piece, a line headed by the entry shows the natural chain unless it says otherwise.
UniProt P11473: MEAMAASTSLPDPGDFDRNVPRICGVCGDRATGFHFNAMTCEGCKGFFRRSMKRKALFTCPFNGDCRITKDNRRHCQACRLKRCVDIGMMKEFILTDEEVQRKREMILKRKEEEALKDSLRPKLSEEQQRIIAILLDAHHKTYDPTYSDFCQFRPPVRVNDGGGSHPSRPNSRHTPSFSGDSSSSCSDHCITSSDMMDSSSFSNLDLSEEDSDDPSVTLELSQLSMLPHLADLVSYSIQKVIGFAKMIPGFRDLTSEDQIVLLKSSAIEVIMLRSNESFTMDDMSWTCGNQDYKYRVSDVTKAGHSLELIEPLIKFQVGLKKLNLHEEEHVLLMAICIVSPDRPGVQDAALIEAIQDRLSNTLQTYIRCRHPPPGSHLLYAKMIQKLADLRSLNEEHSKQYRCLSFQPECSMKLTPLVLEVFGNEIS

molecular target: Vitamin D3 receptor (Homo sapiens) (UniProt P11473); assay: Inhibitors of the vitamin D receptor (VDR): qHTS; conditions: VDR-SRC2-3 peptide fluorescence polarization, 2 h
Potency means the concentration at half of the fitted maximal effect.

Compound	Potency
CC1(C)N([O-])c2cc([N+](=O)[O-])ccc2[N+]1=O	active: 50.1 µM
CCC(=O)O[C@H]1C(O[C@@H]2C(C)[C@H](O[C@H]3C[C@@](C)(OC)C(O)C(C)O3)C(C)C(=O)OC(CC)[C@@](C)(O)C(O)[C@H](C)C(=O)C(C)C[C@]2(C)O)OC(C)CC1N(C)C (some centres not stated)	active: 15.8 µM
